## AlphaSeq binding of Ab-95 light chain variants to a spike HR2 peptide

From the AlphaSeq antibody data of Engelhart et al. 2022 (doi:10.1038/s41597-022-01779-4), copy in the FLAb collection.

Target: peptide PDVDLGDISGINAS, taken from heptad repeat 2 (HR2) of SARS-CoV-2 spike.

Parent scFv Ab-95: VH joined to VL by a 15-residue (Gly4Ser)3 linker. Changes lie in the light chain CDRs alone.
VH: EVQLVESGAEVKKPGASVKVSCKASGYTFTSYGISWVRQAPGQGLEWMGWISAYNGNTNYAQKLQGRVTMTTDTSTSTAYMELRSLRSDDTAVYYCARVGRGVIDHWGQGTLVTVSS
VL: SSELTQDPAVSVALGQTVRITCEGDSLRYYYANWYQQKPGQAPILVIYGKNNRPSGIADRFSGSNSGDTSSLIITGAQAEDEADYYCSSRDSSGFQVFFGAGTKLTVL

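The starting antibody came from a phage panning campaign against this peptide. The library (AAYL52) carries one to three amino acid substitutions per variant, with no insertions or deletions. The scFvs were displayed on barcoded MATa yeast, the peptide on MATalpha yeast. Pairs that bind mate more often; barcode pairs of the diploids are counted by sequencing. A regression on co-assayed BCL2-family reference pairs converts the normalised counts of each replicate to an apparent Kd. The assay was run in three technical replicates.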

Each variant is given by its three light chain CDRs, as the data file delimits them; those of the parent are EGDSLRYYYAN, GKNNRPS, SSRDSSGFQVF.
Every variant below is changed at G49 of the VL (sequential numbering).
Kd is apparent (estimated from mating counts) and averaged on the log scale over replicates with a signal. Smaller is tighter.
A pair that was not seen in any replicate is written "nd"; this usually means weak binding, but a binder can also be missed.
Order: sorted from the lowest average up, undetected variants last.
Nonspecific signal, from three strains lacking the peptide, appeared in 28% of pairings of library AAYL52, centred on 8.2 µM (5% of these signals below 800 nM); values are not corrected for it.

For EGDSLRYYDAN / SKNNRPS / SSRDSSGFLVF, the assay gave 30 nM (3 of 3 replicates). For EGDSLRYPYAN / NINNRPS / SSRDSSGFQVF, the assay gave 110 nM (3 of 3 replicates). For EVDSLRYYYAN / IKNNRPS / SSRDSSGMQVF, the assay gave 330 nM (3 of 3 replicates). The variant EGDDLRYYYAN / EKNNRPS / SSRDSAGFQVF showed 2.0 µM (2 of 3 replicates). For EGLSLRYYYAN / MKNNRPS / FSRDSSGFQVF, the assay gave 2.5 µM (2 of 3 replicates).

With EGDSLNYYYAN / YYNNRPS / SSRDSSGFQVF the result was 4.2 µM (1 of 3 replicates). The variant EGDSLRYDYAN / YKNNRPS / SSRDSSGFWVF gave 4.3 µM (2 of 3 replicates). With EGDSLCYYYAN / DKNNRPS / SSRKSSGFQVF the result was 4.9 µM (1 of 3 replicates). The variant ENDMLRYYYAN / TKNNRPS / SSRDSSGFQVF gave 5.6 µM (1 of 3 replicates). With EGDSLRYIYAN / SKNNRPS / SSRDSHGFQVF the result was 5.7 µM (1 of 3 replicates).

The variant EGDSLRYYYAN / DKYNRPS / SSRDSSGFQVE gave 6.1 µM (3 of 3 replicates). The variant EGFSLRYYYAN / AKNNRPS / PSRDSSGFQVF gave 6.2 µM (1 of 3 replicates). For EGDSLRYYYAN / CKNNMSS / SSRDSSGFQVF, the assay gave 9.2 µM (2 of 3 replicates). The variant EGDHLRYYYAN / YKNERPS / SSRDSSGFQVF gave 10 µM (2 of 3 replicates). The variant EGWSLRYYYAN / WKNNRPS / SSRDSSGFQVF showed 11 µM (1 of 3 replicates).

The variant EGDSLRYYYNN / YKNNRPS / SSRDSSGFQVF gave 11 µM (2 of 3 replicates). The variant EGDSLRYYYAN / DKNNRPS / SSIDSPGFQVF showed 11 µM (2 of 3 replicates). With EGDSLRYYYTN / MKNNRPS / SSRDSSGFQVF the result was 13 µM (1 of 3 replicates). The variant EGDYLRYYYAN / RKNNRPS / GSRDSSGFQVF gave 15 µM (2 of 3 replicates). For EGDSLRYYYAN / VKNNRPS / SSRDTAGFQVF, the assay gave 16 µM (2 of 3 replicates).

The variant EGDSLDYYYAN / HKNNRPS / SSRDSSYFQVF showed 17 µM (3 of 3 replicates). For EGDSLRYYYAN / FKNNRPS / VSRDSSGFQNF, the assay gave 18 µM (2 of 3 replicates). For ETDSLRYYYAN / IKNNGPS / SSRDSSGFQVF, the assay gave 35 µM (1 of 3 replicates). For EGQSLRYYYAN / HKNNRPS / SSRDSSGFQHF, the assay gave 48 µM (1 of 3 replicates). With EGNSLRYYYAN / VKNNRPS / SSRDSSGFQVF the result was 51 µM (1 of 3 replicates).

With EGDSLRYYYAN / LKNNRHS / SSRDSTGFQVF the result was 110 µM (2 of 3 replicates). The variant EGDSLRYYYMN / FKNNRPK / SSRDSSGFQVF showed 120 µM (1 of 3 replicates). The variant EGDSLRYYYAN / VKNNRPS / SERDSSGFQVF gave 150 µM (2 of 3 replicates). With EGRSLRYYYAN / WKTNRPS / SSRDSSGFQVF the result was 160 µM (1 of 3 replicates). For EGDSLRYYYAN / EKNNRPS / STRDSSGFQVG, the assay gave 190 µM (1 of 3 replicates).

For EIDSARYYYAN / MKNNRPS / SSRDSSGFQVF, the assay gave 660 µM (1 of 3 replicates). With EGDSLRYYYAT / LKNNRPS / SSRDSSFFQVF the result was nd (0 of 3 replicates). With WGDSLRYYYAN / YKNNRPS / SSRDSSTFQVF the result was nd (0 of 3 replicates). The variant FGDSLRKYYAN / HKNNRPS / SSRDSSGFQVF showed nd (0 of 3 replicates). The variant EGDSCRYYYAN / YKNARPS / SSRDSSGFQVF gave nd (0 of 3 replicates).

For ETDSLRYYYAN / YKNNRPS / SSRDSSGLQVF, the assay gave nd (0 of 3 replicates). The variant EGDSLRHYYAN / LKNNRPS / ASRDSSGFQVF gave nd (0 of 3 replicates). The variant EGDSLRYYYAN / IKNNRPS / SSRDSQGFYVF showed nd (0 of 3 replicates). The variant EGDSLRYYYAN / VKNNRAS / SSRDSSGFAVF gave nd (0 of 3 replicates). With EGDSLRYYYLN / MKNNRPS / SSRDSSGIQVF the result was nd (0 of 3 replicates).

The variant EGQSLRYYYAN / QKNNRPS / SSRDTSGFQVF showed nd (0 of 3 replicates). The variant EGDSLRYYYAN / FKNNRPS / SSRDSSQWQVF gave nd (0 of 3 replicates). For EGDSLRIYYAN / LKNNRMS / SSRDSSGFQVF, the assay gave nd (0 of 3 replicates).

The closing 5 entries, repeated:

| CDR-L1 | CDR-L2 | CDR-L3 | Kd | replicates with signal |
|---|---|---|---|---|
| EGDSLRYYYAN | VKNNRAS | SSRDSSGFAVF | nd | 0 of 3 |
| EGDSLRYYYLN | MKNNRPS | SSRDSSGIQVF | nd | 0 of 3 |
| EGQSLRYYYAN | QKNNRPS | SSRDTSGFQVF | nd | 0 of 3 |
| EGDSLRYYYAN | FKNNRPS | SSRDSSQWQVF | nd | 0 of 3 |
| EGDSLRIYYAN | LKNNRMS | SSRDSSGFQVF | nd | 0 of 3 |

For reference, the parent read 200 nM as the reference entry and 180 nM as a member of this library.